Where a name gives a salt, the structure may show the parent alone.
What follows are molecules tested on NCI-H292 lung cancer cells (assay: FDA drug screening, complete media vs cholesterol-free media without statin (TABLE 1)). Conditions: not given.

Molecule	Complete
O=C(OCC(O)CO)c1ccccc1Nc1ccnc2cc(Cl)ccc12 (centres unmarked) [Glafenine]	1.17

Same assay, conditions: NCI-H292 cells, FDA drug library screen, complete media

Molecule	Complete
CC(=O)[C@@]1(O)CC[C@H]2[C@@H]3C[C@H](C)C4=CC(=O)C=C[C@]4(C)[C@@]3(F)[C@@H](O)C[C@@]21C [Fluorometholone]	1.165
CCCCC1C(=O)N(c2ccccc2)N(c2ccc(O)cc2)C1=O (centres unmarked) [Oxyphenbutazone]	1.171
CCOC(CN1CCN(CC(C)C(=O)c2ccccc2)CC1)c1ccccc1 (centres unmarked) [Eprazinone (dihydrochloride)]	1.172
CC(C)C[C@@H](N)C(=O)N[C@H]1C(=O)N[C@@H](CC(N)=O)C(=O)N[C@H]2C(=O)N[C@H]3C(=O)N[C@H](C(=O)N[C@H](C(=O)O)c4cc(O)cc(O)c4-c4cc3ccc4O)[C@H](O)c3ccc(c(Cl)c3)Oc3cc2cc(c3O[C@@H]2O[C@H](CO)[C@@H](O)[C@H](O)[C@H]2O[C@H]2C[C@](C)(N)[C@H](O)[C@H](C)O2)Oc2ccc(cc2Cl)[C@H]1O.Cl [Norvancomycin (hydrochloride)]	1.173
Cc1c(C(=O)Nc2ccc(S(C)(=O)=O)cc2)cn(CCO)c1-c1ccccc1C(F)(F)F [Esaxerenone]	1.152

Same assay, conditions: NCI-H292 cells, cholesterol-free media without statin, FDA drug library screen

Molecule	Cholesterol-free
CCCCCCCCCCCCN1CCCCCC1=O [Laurocapram]	0.9447

Same assay, conditions: NCI-H292 cells, complete media

Molecule	Complete
CC1=NN(c2ccc(C)c(C)c2)C(=O)/C1=N\Nc1cccc(-c2cccc(C(=O)O)c2)c1O [Eltrombopag]	1.17
Cn1c(=O)c2c(ncn2CC(=O)O)n(C)c1=O [Acefylline]	1.149
CCn1cc(C(=O)O)c(=O)c2cc(F)c(N3CCNC(C)C3)c(F)c21 (centres unmarked) [Lomefloxacin (hydrochloride)]	1.165
CCCOc1ccc(S(=O)(=O)N2CCN(CCO)CC2)cc1-c1nc2c(CCC)cn(CC)c2c(=O)[nH]1 [Mirodenafil (dihydrochloride)]	1.17
COc1cc2c(cc1OC)CC(=O)N(CCCN(C)C[C@H]1Cc3cc(OC)c(OC)cc31)CC2 [Ivabradine (hydrochloride)]	1.149

Same assay, conditions: NCI-H292 cells, complete media, FDA drug library screen

Molecule	Complete
Cc1ncc(COP(=O)(O)O)c(C)c1O [4-Deoxypyridoxine 5′-phosphate]	1.15
COc1ccc2[n-]c([S+]([O-])Cc3ncc(C)c(OC)c3C)nc2c1.COc1ccc2[n-]c([S+]([O-])Cc3ncc(C)c(OC)c3C)nc2c1.[Mg+2] (centres unmarked) [Esomeprazole magnesium]	1.175
CC(=O)Oc1ccccc1C(=O)Nc1ncc([N+](=O)[O-])s1 [Nitazoxanide]	1.149
CCN1CCN(C(=O)N[C@@H](C(=O)N[C@@H]2C(=O)N3C(C(=O)O)=C(CSc4nnnn4C)CS[C@H]23)c2ccc(O)cc2)C(=O)C1=O [Cefoperazone (sodium salt)]	1.174
CCc1ccc(CCOc2ccc(CC3SC(=O)NC3=O)cc2)nc1 (centres unmarked) [Pioglitazone]	1.169
CCn1c(=O)c2c(nc(/C=C/c3ccc(OC)c(OC)c3)n2C)n(CC)c1=O [Istradefylline]	1.167
CCCCN(CCCC)CC(O)c1cc(Cl)cc2c1-c1ccc(Cl)cc1/C2=C/c1ccc(Cl)cc1 (centres unmarked) [Lumefantrine]	1.173
Oc1ccc(C=Cc2cc(O)cc(O)c2)cc1 [Resveratrol]	1.166
CN1CCN2c3ccccc3Cc3ccccc3C2C1 (centres unmarked) [Mianserin (hydrochloride)]	1.175

Each molecule was assayed on NCI-H292 lung cancer cells (assay: FDA drug screening, complete media vs cholesterol-free media with simvastatin (TABLE 2)). Conditions: not given.

Molecule	Complete Media
Amlodipine (besylate)	0.999
Cc1nc2n(c(=O)c1CCN1CCC(c3noc4cc(F)ccc34)CC1)CCCC2 [Risperidone]	1.151
O=C(O)c1ccccc1 [Benzoic acid]	1.168

Same assay, conditions: NCI-H292 cells, FDA drug library screen, cholesterol-free media with simvastatin 0.04 μM

Molecule	Cholesterol-free media + simvastatin (0.04 μM)
CSc1nc2cc(Cl)c(Oc3cccc(Cl)c3Cl)cc2[nH]1 [Triclabendazole]	0.945

Same assay, conditions: NCI-H292 cells, FDA drug library screen, complete media

Molecule	Complete Media
COC(=O)c1cc(OC)c2c(c1-c1c(C(=O)OC)cc(OC)c3c1OCO3)OCO2 [Bifendate]	1.169
CCCN1CCCC[C@H]1C(=O)Nc1c(C)cccc1C.CS(=O)(=O)O [Ropivacaine (mesylate)]	1.151
CNC[C@H](O)[C@@H](O)[C@H](O)[C@H](O)CO.O=C(O)c1ccc2nc(-c3cc(Cl)cc(Cl)c3)oc2c1 [Tafamidis meglumine]	1.151
CC(C)C[C@H](NC(=O)[C@@H](O)[C@H](N)Cc1ccccc1)C(=O)O [Bestatin (hydrochloride)]	1.151
C[C@H]1Oc2cc(cnc2N)-c2c(nn(C)c2C#N)CN(C)C(=O)c2ccc(F)cc21 [Lorlatinib]	1.15
C[C@H]1O[C@H](OC2[C@@H](O)[C@@H](O)C(O)[C@H](O)[C@H]2O)[C@@H](N)C[C@@H]1N=C(N)C(=O)O.Cl.O (some centres unmarked) [Kasugamycin (hydrochloride hydrate)]	1.153
COc1ccc(-c2cc(=O)c3c(O)cc(O[C@@H]4O[C@H](CO[C@@H]5O[C@@H](C)[C@H](O)[C@@H](O)[C@H]5O)[C@@H](O)[C@H](O)[C@H]4O)cc3o2)cc1O [Diosmin]	1.15
CC(C)NCC(O)COc1ccc(COCCOC(C)C)cc1.CC(C)NCC(O)COc1ccc(COCCOC(C)C)cc1.O=C(O)/C=C/C(=O)O (racemic) [(±)-Bisoprolol (hemifumarate)]	1.154
CCOc1ccc2ccccc2c1C(=O)N[C@@H]1C(=O)N2[C@@H]1SC(C)(C)[C@@H]2C(=O)O [Nafcillin (sodium monohydrate)]	1.174
C[C@H]1O[C@H](O[C@H]2[C@H](O)[C@@H](O)[C@@H](O[C@H]3[C@H](O)[C@@H](O)C(O)O[C@@H]3CO)O[C@@H]2CO)[C@H](O)[C@@H](O)[C@@H]1N[C@H]1C=C(CO)[C@@H](O)[C@H](O)[C@H]1O (some centres unmarked) [Acarbose]	1.153
N#Cc1ccc([C@H]2CCc3cncn32)c(F)c1 [Osilodrostat]	1.152
CC1(C)OC[C@@H](COC(=O)CCc2ccc(OC[C@@H](O)CNCCNC(=O)N3CCOCC3)cc2)O1 [Landiolol (hydrochloride)]	1.169
CS(=O)(=O)Nc1ccc([N+](=O)[O-])cc1Oc1ccccc1 [Nimesulide]	1.153
OCCOCCN1CCN(C(c2ccccc2)c2ccc(Cl)cc2)CC1 (centres unmarked) [Hydroxyzine (dihydrochloride)]	1.173
CC(=O)OCC(=O)[C@@]1(OC(C)=O)[C@@H](C)C[C@H]2[C@@H]3C[C@H](F)C4=CC(=O)C=C[C@]4(C)[C@@]3(F)[C@@H](O)C[C@@]21C [Diflorasone]	1.174
O=C(O)Cc1cc(I)c(Oc2ccc(O)c(I)c2)c(I)c1 [Tiratricol]	1.145
C=CCc1ccccc1OCC(O)CNC(C)C (centres unmarked) [Alprenolol (hydrochloride)]	1.153
Cc1oc(=O)oc1CN1CCN(c2cc3c(cc2F)c(=O)c(C(=O)O)c2n3C(C)S2)CC1 (centres unmarked) [Prulifloxacin]	1.175
NCCCC(O)(P(=O)(O)O)P(=O)(O)O [Alendronate (sodium hydrate)]	1.169
Cn1c(=O)c2[nH]cnc2n(C)c1=O [Choline theophyllinate]	1.171

Same assay, conditions: NCI-H292 cells, FDA drug library screen, complete media; quantity measured not stated in table head

Molecule	Complete Media
CCN1CCN(C(=O)N[C@@H](C(=O)N[C@@H]2C(=O)N3[C@@H]2SC(C)(C)[C@@H]3C(=O)[O-])c2ccccc2)C(=O)C1=O.[Na+] [Piperacillin (sodium)]	1.171

Same assay, conditions: NCI-H292 cells, FDA library drug in complete media

Molecule	Complete Media
NC(=O)N/N=C/c1ccc([N+](=O)[O-])o1 [Nitrofurazone]	1.151
Nc1ccn([C@@H]2CS[C@H](CO)O2)c(=O)n1 [Lamivudine]	1.171
Nc1cc(N2CCCCC2)nc(N)[n+]1[O-] [Minoxidil]	1.166
C[C@H](CCC(=O)NCCS(=O)(=O)O)[C@H]1CC[C@H]2[C@@H]3CC[C@@H]4C[C@H](O)CC[C@]4(C)[C@H]3C[C@H](O)[C@]12C [Taurodeoxycholic acid (sodium hydrate)]	1.168
CC(C)[N+]1(C)[C@@H]2CC[C@H]1CC(OC(=O)C(CO)c1ccccc1)C2.[Br-] (some centres unmarked) [Ipratropium (bromide)]	1.146
N[C@H]1C(O)O[C@H](CO)[C@@H](O)[C@@H]1O (some centres unmarked) [Glucosamine]	1.146

Same assay, conditions: NCI-H292 cells, cholesterol-free media with simvastatin 0.04 μM; FDA drug library screen (TABLE 2)

Molecule	Cholesterol-free media + simvastatin (0.04 μM)
CCN1CCN(c2cc(-c3ccc(F)cc3)c3c(n2)CCCCCC3)CC1 [Blonanserin]	0.9451

Same assay, conditions: NCI-H292 cells, complete media; FDA drug library screen (TABLE 2)

Molecule	Complete Media
O=C(O)c1cc(/N=N/c2ccc(O)c(C(=O)O)c2)ccc1O [Olsalazine (Disodium)]	1.149
C[C@]12C=CC(=O)C=C1CC[C@H]1[C@@H]3C[C@@H](O)[C@](O)(C(=O)CO)[C@@]3(C)C[C@H](O)[C@@]12F [Triamcinolone]	1.165
CC1=C(CC(=O)O)c2cc(F)ccc2/C1=C\c1ccc([S+](C)[O-])cc1 (centres unmarked) [Sulindac]	1.173

Same assay, conditions: NCI-H292 cells, complete media; cell growth value in FDA drug screen

Molecule	Complete Media
CCCCC1C(=O)N(c2ccccc2)N(c2ccccc2)C1=O [Phenylbutazone]	1.149
Clemastine (fumarate)	0.9989
CC(S)C(=O)NCC(=O)O (centres unmarked) [Tiopronin]	1.151
NS(=O)(=O)c1cc2c(cc1Cl)N=C(CSCc1ccccc1)NS2(=O)=O [Benzthiazide]	1.151
COC(=O)C1=C(C)NC(C)=C(C(=O)OC2CCCN(Cc3ccccc3)C2)C1c1cccc([N+](=O)[O-])c1 (centres unmarked) [Benidipine (hydrochloride)]	1.165
C(=C\c1ccccc1)/CN1CCN(C(c2ccccc2)c2ccccc2)CC1 [Cinnarizine]	1.168

Same assay, conditions: NCI-H292 cells, drug in complete media

Molecule	Complete Media
[H]/N=C(\N/C(=N/[H])Nc1ccc(Cl)cc1)NC(C)C [Proguanil]	1.172
CC(C)(O/N=C(\C(=O)N[C@@H]1C(=O)N2C(C(=O)[O-])=C(C[n+]3ccccc3)CS[C@H]12)c1csc(N)n1)C(=O)O [Ceftazidime]	1.153
CN1C(=O)C[C@@H](C(=O)N[C@@H](Cc2c[nH]cn2)C(=O)N2CCC[C@H]2C(N)=O)NC1=O [Taltirelin]	1.148

From US20250144067A1, “PERSONALIZED STARVATION THERAPY FOR CANCER” (Faeth Therapeutics, Inc., priority 2021, published 2025)
